# Measured values reported in article PMC10797628.
# Protein sequences, listed by entry. Tags and fused reporters are not part of them.
# UniProt P08908, whole entry: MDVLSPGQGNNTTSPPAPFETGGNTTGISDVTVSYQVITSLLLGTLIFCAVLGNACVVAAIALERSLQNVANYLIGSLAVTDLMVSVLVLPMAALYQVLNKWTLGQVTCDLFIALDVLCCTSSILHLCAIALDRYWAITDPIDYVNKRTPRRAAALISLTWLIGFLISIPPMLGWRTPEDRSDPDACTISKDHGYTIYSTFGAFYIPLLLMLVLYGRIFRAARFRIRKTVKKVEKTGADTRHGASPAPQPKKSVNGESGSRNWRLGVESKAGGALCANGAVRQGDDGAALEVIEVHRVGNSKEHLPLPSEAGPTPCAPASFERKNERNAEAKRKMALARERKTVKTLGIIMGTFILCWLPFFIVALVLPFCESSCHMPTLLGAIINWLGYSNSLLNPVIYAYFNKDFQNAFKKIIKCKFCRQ
# Biological target: T1, human 5-HT1A receptor (Homo sapiens, UniProt P08908)
# T1 construct: host or cells: HEK293T
# Assay: cAMP accumulation (LANCE Ultra TR-FRET) in HEK293T cells, WT 5-HT1A
# Assay type: cell-based
# Conditions: normalized to basal (0%) and 10 μM 5-CT (100%)
smiles,measurement,value
"NCCc1c[nH]c2ccc(C(N)=O)cc12 [5-CT, 5-carboxamidotryptamine, reference compound]",5-HT1A EMAX (%),100 ± 2%
